Measured values taken from patent publication US6335457B1, “Complex containing biologically assimilable orthosilicic acid, which is under solid form, stable and concentrated, and a process for preparation of said complex” (Exsymol S.A.M., priority 1999, dated 2002).
Read-outs that look alike come from different tables or passages of the source.

What was measured:
[1] = above it oligomers and polymers form; cited from earlier work
[2] = rat duodenum; for % of silicon diffusion: pH 8.5, 37° C.

Substance	concentration up to which relatively stable in solution [1]	diffusion through the duodenal wall, in words ([2]; pH 8.5)	% of silicon diffusion ([2]; time 0 min)	% of silicon diffusion ([2]; time 24 min)	% of silicon diffusion ([2]; time 28 min)	% of silicon diffusion ([2]; time 34 min)	% of silicon diffusion ([2]; time 48 min)	% of silicon diffusion ([2]; time 56 min)	% of silicon diffusion ([2]; time 60 min)	% of silicon diffusion ([2]; time 68 min)	% of silicon diffusion ([2]; time 70 min)	% of silicon diffusion ([2]; time 74 min)	% of silicon diffusion ([2]; time 85 min)	% of silicon diffusion ([2]; time 90 min)
orthosilicic acid [Monomeric orthosilicic acid]	about 10^−4 Mol.l^−1	–	–	–	–	–	–	–	–	–	–	–	–	–
orthosilicic acid [Non stabilised orthosilicic acid]	–	weak diffusion	0%	0.67%	0.99%	1%	1.16%	1.54%	1.75%	1.86%	2.08%	2.13%	2.54%	2.67%
